#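 Cells were grown in 96-well plates and exposed to each compound for 48 hours at five concentrations; endpoints were interpolated linearly between bracketing concentrations, or set to the highest concentration if not reached. TGI: total growth inhibition.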
# Columns and labels:
# Experiment in all cases: inhibition of tumour cell growth, NCI panel, 48 h
# [1] = tested on: RXF 393 renal
# [2] = tested on: HT29 colon
# [3] = tested on: CCRF-CEM leukemia
# [4] = tested on: ACHN renal
# [5] = tested on: SNB-19 CNS
# [6] = tested on: UACC-62 melanoma
# [7] = tested on: MDA-MB-231 breast
# [8] = tested on: NCI-H460 lung
# [9] = tested on: NCI/ADR-RES ovarian
# [10] = tested on: SF-268 CNS
# [11] = tested on: HL-60(TB) leukemia
# [12] = tested on: A498 renal
# [13] = tested on: KM12 colon
# [14] = tested on: PC-3 prostate
# [15] = tested on: UO-31 renal
# [16] = tested on: SK-MEL-28 melanoma
# [17] = tested on: NCI-H23 lung
# [18] = tested on: U251 CNS
# [19] = tested on: EKVX NSCLC
# [20] = tested on: HCT-116 colon
# [21] = tested on: 786-0 renal
# [22] = tested on: SN12C renal
# [23] = tested on: HS 578T breast
# [24] = tested on: RPMI-8226 leukemia
# [25] = tested on: TK-10 renal
# [26] = tested on: BT-549 breast
# [27] = tested on: T-47D breast
# [28] = tested on: K-562 leukemia
# [29] = tested on: SK-MEL-2 melanoma
# [30] = tested on: A549 NSCLC
# [31] = tested on: HCC-2998 colon
# [32] = tested on: MCF7 breast
# [33] = tested on: MDA-N
# [34] = tested on: OVCAR-5 ovarian
# [35] = tested on: UACC-257 melanoma
# [36] = tested on: MOLT-4 leukemia
# [37] = tested on: SR leukemia
# [38] = tested on: SW-620 colon
# [39] = tested on: NCI-H322M lung
# [40] = tested on: MALME-3M melanoma
# [41] = tested on: M14 melanoma
smiles,measurement,setting,value
CN(C(=O)Cc1ccc(Cl)cc1Cl)[C@@H]1CCCC[C@@H]1N1CCCC1,TGI,[1],> 100 µM
same,TGI,[2],> 100 µM
same,TGI,[3],> 100 µM
same,TGI,[4],> 100 µM
same,TGI,[5],> 100 µM
same,TGI,[6],> 100 µM
same,TGI,[7],> 100 µM
same,TGI,[8],> 100 µM
same,TGI,[9],> 100 µM
same,TGI,[10],> 100 µM
same,TGI,[11],> 100 µM
same,TGI,[12],99.9 µM
same,TGI,[13],> 100 µM
same,TGI,[14],> 100 µM
same,TGI,[15],> 100 µM
same,TGI,[16],> 100 µM
same,TGI,[17],> 100 µM
same,TGI,[18],> 100 µM
same,TGI,[19],> 100 µM
same,TGI,[20],> 100 µM
same,TGI,[21],> 100 µM
same,TGI,[22],> 100 µM
same,TGI,[23],> 100 µM
same,TGI,[24],> 100 µM
same,TGI,[25],> 100 µM
same,TGI,[26],> 100 µM
same,TGI,[27],> 100 µM
same,TGI,[28],> 100 µM
same,TGI,[29],> 100 µM
same,TGI,[30],> 100 µM
same,TGI,[31],> 100 µM
same,TGI,[32],> 100 µM
same,TGI,[33],> 100 µM
same,TGI,[34],> 100 µM
same,TGI,[35],> 100 µM
same,TGI,[36],78 µM
same,TGI,[37],> 100 µM
same,TGI,[38],> 100 µM
same,TGI,[39],> 100 µM
same,TGI,[40],> 100 µM
same,TGI,[41],39.3 µM
